Values of other authors in PubChem BioAssay AID1811 (Shanghai Institute of Organic Chemistry, 2009).
The list shows a part of the results. Calls of active or inactive are those of the source. Unless stated, no cut-off for active and inactive is given here.

Tested on: dodecin
Test: PubChem AID 1811
Conditions: PDB complex binding affinities from literature

| Structure (SMILES) | outcome |
| --- | --- |
| Cc1cc2nc3c(=O)[nH]c(=O)nc-3n(C[C@H](O)[C@H](O)[C@H](O)CO)c2cc1C | active |
| Cc1cc2nc3[nH]c(=O)[nH]c(=O)c3nc2cc1C | active |
